According to PubChem BioAssay AID602472 (Sanford-Burnham Center for Chemical Genomics, 2012):
The list shows a part of the results, in another mix than the full data. Calls of active or inactive are those of the source. No stated cut-off is given here; in the data, active means inhibition above about 40%; inactive means the rest.

assay: inhibitors of PAF-induced NF-kB signaling, retest, confirmation, cell-based, GFP fluorescence, single concentration (AID 602472); settings: KKLEB CF airway cells, overnight, at 5 µM, active compounds read high;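 further: stimulus PAF is a Pseudomonas aeruginosa filtrate and not platelet activating factor; plate controls were DMSO wells with stimulus for no effect and unstimulated DMSO wells for full effect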
How it was run: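 Assay system: KKLEB immortalized cystic fibrosis airway epithelial cells with NFkB-GFP reporter. Buffer or medium: medium with 2% FBS for cells, serum-free medium for stimulus. Dosing: 5 µM single dose. Times: 2 h compound pretreatment at 37 °C, overnight PAF exposure. Measured by: GFP fluorescence of NFkB reporter.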

Row | Structure (SMILES) | inhibition
1 | CCCCn1nnnc1C(c1cccs1)N1CCC(n2c(=O)[nH]c3ccccc32)CC1 (stereo unspecified) | inactive: 12.9%
